# AlphaSeq binding of Ab-14 light chain variants to a spike HR2 peptide

Reference: Li et al. 2023, doi:10.1038/s41467-023-39022-2. File: FLAb, binding data.

Target: peptide PDVDLGDISGINAS, taken from heptad repeat 2 (HR2) of SARS-CoV-2 spike.

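The starting antibody came from a phage panning campaign against this peptide. This is the validation round: designs drawn from the data on random variants, tested in the same kind of assay. Their group label is 14L_Ctrl (Ctrl: baseline library sampled from a position-specific scoring matrix, with some repeated check sequences). AlphaSeq pools MATa yeast showing the antibodies with MATalpha yeast showing the peptide. Pairs that bind mate more often; barcode pairs of the diploids are counted by sequencing. The ratio of observed to expected reads was calibrated, replicate by replicate, on BCL2-family standards whose Kd was known from biolayer interferometry. Each pool was mated in six replicate cultures.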

Parent: Ab-14, a human scFv built as VH, a (GGGGS)3 linker, VL. Only the CDRs of the light chain vary.
VH: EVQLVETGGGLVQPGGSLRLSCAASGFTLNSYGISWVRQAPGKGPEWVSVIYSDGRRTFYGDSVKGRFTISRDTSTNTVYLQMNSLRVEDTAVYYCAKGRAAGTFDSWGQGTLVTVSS
VL: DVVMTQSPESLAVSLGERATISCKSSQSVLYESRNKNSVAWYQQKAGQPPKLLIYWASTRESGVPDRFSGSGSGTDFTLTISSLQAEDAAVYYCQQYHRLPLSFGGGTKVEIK

The parent's light chain CDRs are KSSQSVLYESRNKNSVA, WASTRES, QQYHRLPLS; each variant's own CDRs replace them letter for letter. Numbers give log10(Kd / nM), so 0 is 1 nM and 3 is 1 µM. Smaller is tighter. Averages over replicates are reported, and they cover detected replicates only. "nd" marks a missing value. The strain was present, yet no cells mated with the target were sequenced in that replicate, which points to weak or no binding. Of ten entries with the parent sequence, four were seen in most replicates (averages 0.34 to 2.37), three in one and three in none, so single entries are noisy.

KSSQSVLYESRNNNSVA | WASTRES | QQYHRLPLQ: 1.83, nd, 2.56, nd, nd, 2.42 (mean 2.27; controls 1 of 18).
KSSQSVLYELRDKNSVA | WASTRES | QQYHRLPLS: nd, nd, nd, 2.80, nd, nd (controls 0 of 18).
KLSQSVVYESRNKNSVA | TASTRED | QQYHMLPLS: 0.73, 0.66, 0.36, 0.74, 1.46, 0.99 (mean 0.82; controls 0 of 18).
KSSQSGLYESRNKNSVA | SAETRES | QQYHRLPLS: 0.29, 0.19, 0.31, 0.33, 0.25, 0.34 (mean 0.28; controls 0 of 18).
KSSQSVLYESRNKNSVA | QASTRFS | QQYHRLPLS: 0.75, 0.61, 0.60, 0.93, 0.84, 1.09 (mean 0.80; controls 0 of 18).
ESSQSVLSESRNKNSVA | GASTRES | NQYHRLPLS: 0.08, 0.31, 0.64, 0.50, 0.57, 0.24 (mean 0.39; controls 3 of 18).
MSSQSVLKEARNLNSVA | QASTRES | QQYHRLPLC: 1.30, 1.64, 1.38, 1.25, 1.80, 1.48 (mean 1.47; controls 1 of 18).
KYSQSVFYESRNKNSIA | NASTREM | QQYHRLPLS: 0.00, -0.12, -0.10, 0.07, 0.21, 0.26 (mean 0.05; controls 1 of 18).
KMSQSVLYESDNKNSVA | WVSTRES | QQYTRLPLS: 1.21, 1.76, 1.26, 1.17, 0.92, 1.35 (mean 1.28; controls 0 of 18).
KSSSSVLYESRNKNSVA | WASTRES | QQYERLPLS: 0.15, -0.09, 0.21, -0.02, 0.03, -0.12 (mean 0.03; controls 1 of 18).
KISQGVLYESRNKNSVA | WASTRES | QQYHRLPLS: 1.94, 0.89, 1.71, 0.92, 0.35, 1.27 (mean 1.18; controls 0 of 18).
KSSQSVLYYGRNGNFVA | WASTRSS | QQYHRLPLS: 1.57, nd, nd, nd, nd, nd (controls 0 of 18).
KSSQSVLYESRNKASVA | WASTRES | QQYHRLPLS: nd, nd, nd, 3.17, 1.69, 3.36 (mean 2.74; controls 0 of 18).
KSSQSVLYYSRNKNSVA | WASTRES | QQYHRLPLS: nd, 3.85, nd, nd, nd, nd (controls 1 of 18).
KSSQSVLMEYENFNSVA | WADTRES | QEYHRLPLS: nd, nd, nd, nd, nd, nd (controls 0 of 18).
KMSQSHNYESRNKNSVA | SASTRES | QQYARLPLS: 0.17, 0.20, 0.11, -0.05, -0.20, 0.11 (mean 0.06; controls 1 of 18).
KLSQSVLYERRNKNSVA | EASTRES | QQYFRLPLS: 0.21, 0.03, 0.07, -0.02, -0.17, 0.29 (mean 0.07; controls 0 of 18).
KMSQSVLYESRNKNSVA | KASTRES | QQYHRLPLS: 0.03, 0.04, -0.24, 0.04, -0.08, 0.02 (mean -0.03; controls 0 of 18).
KSSQSVLYESRNSNSVA | HASTRES | QQYHRLPLS: 0.85, 0.43, 0.38, 0.28, 0.48, 0.52 (mean 0.49; controls 1 of 18).
KSSQWCLYESRNKNAVA | WASTRES | QQYHRLPLS: nd, nd, 1.36, nd, nd, 1.53 (mean 1.44; controls 0 of 18).
KISQSVLYESDNKNSVA | GASTRES | QQYHRLPLS: 0.10, 0.48, -0.12, -0.21, 0.21, 0.22 (mean 0.11; controls 0 of 18).
KSQQKVLYESMNKNSVA | EASTREA | QQYHRLSLS: nd, nd, nd, nd, nd, nd (controls 0 of 18).
KSSQSVLYESRNKNSVA | WASTRES | VQYFRLPFS: nd, nd, nd, nd, nd, nd (controls 0 of 18).
KSSSSVHYESRNKNSVA | WASTRES | QQYHRLPLS: nd, nd, nd, nd, nd, nd (controls 0 of 18).
KSPQSVLYESRNKNSVA | WASTRPS | QQYHRLPLS: nd, 1.26, 2.53, 1.25, 1.87, nd (mean 1.73; controls 2 of 18).
SSSWSVLYESRNKNSVA | WASERES | QSYHRLPLS: nd, nd, nd, nd, nd, nd (controls 0 of 18).
KSSQSVLYESRNKNSVA | NASTRPS | QQYHRLPLS: 0.61, 0.54, 0.46, 0.74, 0.45, 0.72 (mean 0.59; controls 4 of 18).
KISQSVLYELRNKNSVA | WASTRES | QQYHRLPLS: 0.96, 2.35, 2.06, 1.51, 2.07, 1.53 (mean 1.75; controls 1 of 18).
KSSLSVLYESHNKNSVA | WASTRES | QQYHRLPLS: 1.49, 1.61, 2.50, 1.18, 2.04, 2.57 (mean 1.90; controls 0 of 18).
KSSQSVLQEWRNKNSVA | WASTREI | QQYCRLPLS: 2.03, 2.48, 2.56, 1.91, 1.36, 1.92 (mean 2.04; controls 0 of 18).
KMSQSVLYESRNKNSIA | WASTRES | PQYHRLPLS: nd, nd, nd, nd, nd, nd (controls 0 of 18).
KMGQFVLYEDRLKNSVA | WASTRES | QQYHRLPLS: nd, nd, nd, nd, nd, nd (controls 0 of 18).
KSSQSQLYESRNKNSVA | HAGKRES | QQYHILPLS: 1.51, 1.68, 1.55, 1.42, 1.80, 2.17 (mean 1.69; controls 1 of 18).
KSSQHVLYESRNKNSVA | AASTRES | QQYKRLPLS: 1.07, 1.11, 1.17, 1.10, 1.02, 1.24 (mean 1.12; controls 0 of 18).
KSSQSVLYESENKNSVA | EASVRES | QQYHKLPLS: 0.47, 0.74, 0.72, 0.67, 0.87, 0.87 (mean 0.72; controls 2 of 18).
KSSQSVLYESRNKNSVA | WASSRES | QQVHRLPLS: nd, nd, nd, nd, nd, nd (controls 0 of 18).
KSSQSVLDESRNKNSVA | WATTRES | QQYHRLPLS: 1.58, 2.26, 1.57, 2.20, 1.74, 1.64 (mean 1.83; controls 4 of 18).
KVSQSVLYESRNKNSVA | WADTRES | QQYHRLPLS: 0.68, 0.78, 0.63, 1.13, 0.44, 0.61 (mean 0.71; controls 1 of 18).
KSSQSVLYEDRVKNSVA | WASTRES | QQYHRLPLS: nd, nd, nd, 0.50, nd, nd (controls 0 of 18).
KSSQSVLYESRNKNSVA | WASTRES | QQYHRLPIA: nd, nd, nd, nd, nd, nd (controls 1 of 18).
MSSQSVLYEARNKNSVA | SASTRES | QQYHRLPLS: nd, 1.45, 2.74, 1.53, 1.14, 2.07 (mean 1.79; controls 0 of 18).

A selection of 5 entries from above:

| CDR-L1 | CDR-L2 | CDR-L3 | log10 Kd (nM) by replicate | mean log10 Kd (nM) | signal with controls |
|---|---|---|---|---|---|
| KSQQKVLYESMNKNSVA | EASTREA | QQYHRLSLS | nd, nd, nd, nd, nd, nd | nd | 0/18 |
| KSSQSVLYEDRVKNSVA | WASTRES | QQYHRLPLS | nd, nd, nd, 0.50, nd, nd | 0.50 | 0/18 |
| KSSQSVLYESRNKASVA | WASTRES | QQYHRLPLS | nd, nd, nd, 3.17, 1.69, 3.36 | 2.74 | 0/18 |
| KLSQSVLYERRNKNSVA | EASTRES | QQYFRLPLS | 0.21, 0.03, 0.07, -0.02, -0.17, 0.29 | 0.07 | 0/18 |
| KSSQSVLMEYENFNSVA | WADTRES | QEYHRLPLS | nd, nd, nd, nd, nd, nd | nd | 0/18 |

A sequence measured in both rounds can read differently, since the two assays cover different ranges. In the paper, a design with two or fewer of six values counts as a poor binder. As a blank, each scFv also met three strains without target: over all light chain designs, 4% of these pairings were detected, typically at 2.64 and seldom below 1.59. Also given: how often the same scFv was detected with the empty control strains.